Experimental data taken from PMC11356839, “The Synthesis of SNAC Phenolate Salts and the Effect on Oral Bioavailability of Semaglutide” (Molecules, 2024).

Conditions: rat, in vivo
Protocol: All compounds are powders.
IV solution was prepared by dissolving semaglutide in water containing disodium phosphate (0.014% w/v), propylene glycol (0.144% w/v), and phenol (0.056% w/v). The solution was diluted by 3 to reach semaglutide concentration of 0.046mg/mL and filtrated by a sterile 0.22 μm syringe filter.
Pharmacokinetic study protocol: Male Wistar rats (275–300 g, Harlan, Israel) were kept under a 12 h light/dark cycle, with free access to food and water. Animals were anesthetized, and an indwelling cannula was placed into the right jugular vein for systemic blood sampling. The cannula was tunneled beneath the skin and exteriorized at the dorsal part of the neck. The animals were transferred to individual cages to recover overnight (12–18 h). Throughout the experiments, free access to food was available 4 h post-oral administration.
Oral SNAC or salt formulations were dispersed in distilled water and then administrated by oral gavage (~1.2 mL for a rat to get semaglutide dose of 12 mg/kg). Blood samples (0.36 mL) were obtained by intravenous cannula, placed into the jugular vein. In the case of oral administration, samples were taken at 5 min pre-dose intervals and at different time points post-dose, according to the pharmacokinetic profile (no more than 10% of rat blood volume was drawn). To prevent dehydration, physiological solutions were administered, following each blood sampling. Plasma was separated by centrifugation (4000 rpm, 7 min, 4 °C) and stored at −20 °C until use.
Plasma samples were analyzed by a developed LC-MS method for semaglutide.
Absolute bioavailability values and other pharmacokinetic observations were assessed by comparison to intravenous bolus of semaglutide.
Semaglutide in plasma was performed in an Eppendorf® tube by mixing 150 μL of the plasma sample with 150 μL acetonitrile (ACN) and 15 μL of 5% formic acid (FA) and vortexed for 5 min. The tube was centrifuged at 15 °C, 6000 rpm for 6 min. Then, 160 μL of the supernatant was collected in a new tube. A second extraction was performed for the remaining precipitant by adding 60 μL of 5% FA, followed by mixing and centrifugation. Supernatant, 50 μL, was transferred into a tube. The solvent was evaporated to dryness, reconstituted with 50 μL 5% FA, and analyzed by an LC-MS system. Semaglutide standards were prepared by spiking semaglutide solutions in 5% FA into plasma to obtain final concentrations of 1–0.005 μg/mL. The same extraction procedure was performed on the standards as well.
MS/MS analyses were determined on a Sciex (Framingham, MA, USA) QTRAP® 6500^+ mass spectrometer). […]

SNAC–choline
Fabs (Absolute bioavailability): 0.113 ± 0.01%
AUC0−8 (po, 12 mg/kg): 2031 ± 193 ng·h/mL
AUC0−∞ (po, 12 mg/kg): 2281 ± 197 ng·h/mL
Cmax (po, 12 mg/kg): 494 ± 63 ng/mL
